According to US10117956B2, “Radiolabeled active targeting pharmaceutical composition and the use thereof” (Institute of Nuclear Energy Research Atomic Energy Council, …, priority 2013, dated 2018):

Key:
[1] = Biodistribution test in mice carrying A549 tumor; type: in vivo, mouse; details: for Biodistribution, Tumor: A549 tumor
[2] = Drug dynamics test (WinNonlin, non-compartment model) from blood activity-time curve; type: in vivo, mouse; details: tail vein injection, mice carrying A549 tumor
[3] = 0.5 h after tail vein injection

^131I-C225-AuNPs: iodine-131 labeled bioconjugate of antibody C225 and gold nanoparticles
Biodistribution, Blood [1, 3]: 3.76±0.98 % ID/g | Biodistribution, Heart [1, 3]: 0.91 ± 0.12 % ID/g | Biodistribution, Kidney [1, 3]: 3.80 ± 0.65 % ID/g | Biodistribution, Large intestine [1, 3]: 1.15 ± 0.42 % ID/g | Biodistribution, Liver [1, 3]: 19.47 ± 1.47 % ID/g | Biodistribution, Lung [1, 3]: 4.87 ± 2.52 % ID/g | Biodistribution, Medulla [1, 3]: 6.58 ± 2.22 % ID/g | Biodistribution, Muscle [1, 3]: 0.57 ± 0.16 % ID/g | Biodistribution, Small intestine [1, 3]: 1.67 ± 0.23 % ID/g | Biodistribution, Spleen [1, 3]: 16.41 ± 3.90 % ID/g | Biodistribution, Urine [1, 3]: 286.9 ± 75.38 % ID/g | Biodistribution, Blood ([1]; 1 h after tail vein injection): 3.49 ± 0.15 % ID/g | Biodistribution, Heart ([1]; 1 h after tail vein injection): 1.13 ± 0.17 % ID/g | Biodistribution, Large intestine ([1]; 1 h after tail vein injection): 1.13 ± 0.21 % ID/g | Biodistribution, Liver ([1]; 1 h after tail vein injection): 17.31 ± 1.39 % ID/g | Biodistribution, Lung ([1]; 1 h after tail vein injection): 6.66 ± 3.72 % ID/g | Biodistribution, Medulla ([1]; 1 h after tail vein injection): 5.64 ± 2.37 % ID/g | Biodistribution, Muscle ([1]; 1 h after tail vein injection): 0.64 ± 0.05 % ID/g | Biodistribution, Small intestine ([1]; 1 h after tail vein injection): 1.63 ± 0.29 % ID/g | Biodistribution, Spleen ([1]; 1 h after tail vein injection): 17.75 ± 7.71 % ID/g | Biodistribution, Stomach ([1]; 1 h after tail vein injection): 9.14 ± 0.84 % ID/g | Biodistribution, Urine ([1]; 1 h after tail vein injection): 309.9 ± 2.61 % ID/g | Biodistribution, Blood ([1]; 2 h after tail vein injection): 3.31 ± 1.08 % ID/g | Biodistribution, Heart ([1]; 2 h after tail vein injection): 0.99 ± 0.32 % ID/g | Biodistribution, Kidney ([1]; 2 h after tail vein injection): 3.08 ± 0.41 % ID/g | Biodistribution, Large intestine ([1]; 2 h after tail vein injection): 1.02 ± 0.47 % ID/g | Biodistribution, Liver ([1]; 2 h after tail vein injection): 18.64 ± 1.82 % ID/g | Biodistribution, Lung ([1]; 2 h after tail vein injection): 3.85 ± 3.95 % ID/g | Biodistribution, Medulla ([1]; 2 h after tail vein injection): 3.60 ± 1.37 % ID/g | Biodistribution, Muscle ([1]; 2 h after tail vein injection): 0.58 ± 0.33 % ID/g | Biodistribution, Small intestine ([1]; 2 h after tail vein injection): 1.89 ± 0.67 % ID/g | Biodistribution, Spleen ([1]; 2 h after tail vein injection): 17.91 ± 3.18 % ID/g | Biodistribution, Stomach ([1]; 2 h after tail vein injection): 11.24 ± 4.28 % ID/g | Biodistribution, Urine ([1]; 2 h after tail vein injection): 169.4 ± 22.38 % ID/g | Biodistribution, Blood ([1]; 4 h after tail vein injection): 2.84 ± 0.45 % ID/g | Biodistribution, Heart ([1]; 4 h after tail vein injection): 1.03 ± 0.26 % ID/g | Biodistribution, Kidney ([1]; 4 h after tail vein injection): 2.47 ± 1.19 % ID/g | Biodistribution, Large intestine ([1]; 4 h after tail vein injection): 1.38 ± 0.20 % ID/g | Biodistribution, Liver ([1]; 4 h after tail vein injection): 14.15 ± 1.19 % ID/g | Biodistribution, Lung ([1]; 4 h after tail vein injection): 3.87 ± 1.15 % ID/g | Biodistribution, Medulla ([1]; 4 h after tail vein injection): 3.86 ± 0.86 % ID/g | Biodistribution, Muscle ([1]; 4 h after tail vein injection): 0.65 ± 0.15 % ID/g | Biodistribution, Small intestine ([1]; 4 h after tail vein injection): 2.24 ± 0.73 % ID/g | Biodistribution, Spleen ([1]; 4 h after tail vein injection): 18.65 ± 3.93 % ID/g | Biodistribution, Stomach ([1]; 4 h after tail vein injection): 10.86 ± 2.90 % ID/g | Biodistribution, Urine ([1]; 4 h after tail vein injection): 75.08 ± 23.02 % ID/g | Biodistribution, Blood ([1]; 24 h after tail vein injection): 0.15 ± 0.01 % ID/g | Biodistribution, Heart ([1]; 24 h after tail vein injection): 0.05 ± 0.00 % ID/g | Biodistribution, Kidney ([1]; 24 h after tail vein injection): 0.91 ± 0.07 % ID/g | Biodistribution, Large intestine ([1]; 24 h after tail vein injection): 0.07 ± 0.02 % ID/g | Biodistribution, Liver ([1]; 24 h after tail vein injection): 4.84 ± 0.57 % ID/g | Biodistribution, Lung ([1]; 24 h after tail vein injection): 0.73 ± 0.25 % ID/g | Biodistribution, Medulla ([1]; 24 h after tail vein injection): 1.70 ± 0.64 % ID/g | Biodistribution, Muscle ([1]; 24 h after tail vein injection): 0.02 ± 0.01 % ID/g | Biodistribution, Small intestine ([1]; 24 h after tail vein injection): 0.09 ± 0.04 % ID/g | Biodistribution, Spleen ([1]; 24 h after tail vein injection): 6.09 ± 0.34 % ID/g | Biodistribution, Urine ([1]; 24 h after tail vein injection): 4.43 ± 1.31 % ID/g | Biodistribution, Tumor [1, 3]: 1.75 ± 0.49 % ID/g | Biodistribution, Tumor ([1]; 1 h after tail vein injection): 1.69 ± 0.20 % ID/g | Biodistribution, Tumor ([1]; 2 h after tail vein injection): 1.46 ± 0.71 % ID/g | Biodistribution, Tumor ([1]; 4 h after tail vein injection): 1.66 ± 0.42 % ID/g | Biodistribution, Tumor ([1]; 24 h after tail vein injection): 0.11 ± 0.02 % ID/g | AUCinf [2]: 44.34 h × % ID/mL | AUClast [2]: 43.25 h × % ID/mL | Cmax [2]: 3.76 % ID/mL
